Experimental data taken from US8906868B2, “Aminoglycoside derivatives” (Rempex Pharmaceuticals, Inc., priority 2010, dated 2014).

Tested on: rats
Assay: Nephrotoxicity of test compounds in rats
Conditions: 300 mg/kg/day, once daily subcutaneous

Gentamicin C1a
Histopathology Results After 14 days of Dosing: 4/4 Died
